Tested on: hERG channel

O=C(O)Cc1ccccc1Nc1c(Cl)cccc1Cl [Diclofenac]
Desenstization to hERG activator: inactive

Source: patent US20120022116A1, “COMPOSITIONS AND METHODS FOR THE TREATMENT OF PATHOLOGICAL CONDITION(S) RELATED TO GPR35 AND/OR GPR35-HERG COMPLEX” (priority 2010, published 2012)
